These results are taken from patent publication US12414931B1 (priority 2024, dated 2025).

By UniProt entry, the sequences of proteins in these tests, tags left out. Residues count along the entry.
UniProt O94925, 55-669 limits assumed: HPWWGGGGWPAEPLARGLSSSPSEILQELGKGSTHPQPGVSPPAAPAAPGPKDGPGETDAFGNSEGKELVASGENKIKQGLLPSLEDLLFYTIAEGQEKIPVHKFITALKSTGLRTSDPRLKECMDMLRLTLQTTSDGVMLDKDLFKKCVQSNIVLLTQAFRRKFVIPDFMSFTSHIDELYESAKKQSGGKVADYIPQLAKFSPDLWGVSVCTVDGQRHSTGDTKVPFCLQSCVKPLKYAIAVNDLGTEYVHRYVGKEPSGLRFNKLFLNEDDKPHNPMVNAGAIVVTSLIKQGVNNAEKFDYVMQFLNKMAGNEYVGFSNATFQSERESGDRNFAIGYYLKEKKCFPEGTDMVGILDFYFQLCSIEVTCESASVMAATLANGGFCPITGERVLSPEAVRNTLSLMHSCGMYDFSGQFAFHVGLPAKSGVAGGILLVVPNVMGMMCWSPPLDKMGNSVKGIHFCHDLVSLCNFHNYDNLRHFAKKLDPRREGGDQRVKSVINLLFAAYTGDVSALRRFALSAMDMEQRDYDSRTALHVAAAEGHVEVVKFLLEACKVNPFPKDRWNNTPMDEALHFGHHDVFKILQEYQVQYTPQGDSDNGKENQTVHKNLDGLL

Series [1] concerns MCF12A cells. The series is described as follows: Cytotoxicity to normal breast cells, CellTiter-Glo, MCF12A. It counts as cell-based, human. The note with it: read-out: IC50 cell viability, normal breast cells, 72 h. (In general: In ATP-based viability assays light output follows the ATP content of the culture.)
Series [2] deals with MDA-MB-231 cells. Kind of series: Arsenic uptake assay (ICP-MS total arsenic). Conditions: MDA-MB-231, 5 μM arsenic compound, 72 h, total arsenic by ICP-MS.
The test system of series [3] is HCC1569 cells. Kind of series: Cell viability, CellTiter-Glo Luminescent Cell Viability Assay, HCC1569. The note with it: read-out: IC50 cell viability; HCC1569, 72 h.
Series [4] has as its system MDA-MB-231 cells. Kind of series: Cell viability, CellTiter-Glo Luminescent Cell Viability Assay, MDA-MB-231. The note with it: read-out: IC50 cell viability; MDA-MB-231, 72 h.
In series [5] the target is KGA (Homo sapiens, UniProt O94925). Kind of series: KGA inhibition by thiolated pentavalent organoarsenicals.

Molecules are shown by their SMILES.

For orientation: IC50 means the concentration at which inhibition is half-maximal. Consider `O=[N+]([O-])c1cc([As](O)O)ccc1O`, for which the IC50 in series [1] turned out to be 5.6 µM; in series [3], 9 µM; in series [4], 10 µM. Also, in series [2], the “cell permeability (uptake of arsenicals)” value is listed as “better permeability than R-AST-OH”.

On to `NC(CC[As](O)(O)=S)C(=O)O` (stereo not drawn), for which the “inhibition of KGA compared with AST-OH” value in series [5] is recorded as “much higher affinity than AST-OH”.

Take `NC(CC[As](O)(=S)S)C(=O)O` (stereo not drawn): in series [5], the “inhibition of KGA compared with AST-OH” value is recorded as “much higher affinity than AST-OH”.
